Experimental findings from PubChem BioAssay AID720643 (The Scripps Research Institute Molecular Screening Center, 2013) are described below.

Amino acid sequences for entries named in this document (tags omitted).
UniProt P35363, whole entry, looked up: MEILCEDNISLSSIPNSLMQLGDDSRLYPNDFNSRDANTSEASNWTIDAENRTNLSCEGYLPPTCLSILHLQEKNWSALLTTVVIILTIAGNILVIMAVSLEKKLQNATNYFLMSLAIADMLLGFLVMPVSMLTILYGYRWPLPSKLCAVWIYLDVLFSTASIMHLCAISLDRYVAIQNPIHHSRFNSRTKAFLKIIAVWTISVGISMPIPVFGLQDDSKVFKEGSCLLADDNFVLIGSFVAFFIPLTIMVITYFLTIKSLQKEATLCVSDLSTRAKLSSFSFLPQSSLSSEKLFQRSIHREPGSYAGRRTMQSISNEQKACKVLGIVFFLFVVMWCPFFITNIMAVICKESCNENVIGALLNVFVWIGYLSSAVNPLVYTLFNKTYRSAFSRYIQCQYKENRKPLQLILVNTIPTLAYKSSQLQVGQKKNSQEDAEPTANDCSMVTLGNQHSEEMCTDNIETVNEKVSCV

This test has as its target 5-hydroxytryptamine receptor 2A (Mus musculus) (UniProt P35363). Description: agonist EC50 at mouse 5-HT2A receptor – cell-based, luminescence, CHO-K1, powder samples, dose response, late-stage follow-up (AID 720643). The following applies: CHO-K1 mHTR2A beta-arrestin PathHunter luminescence.

Calls of active or inactive are those of the source.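 How the source made its calls: active means EC50 of 10 µM or lower; inactive means EC50 above 10 µM.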

Take `Nc1c2c(nc3ccccc13)CCCC2`: the EC50 (commonly the concentration giving half of the maximal effect) is inactive: > 76.1 µM.
